Data: patent EP4455142A1, “NOVEL INHIBITOR OF QPCTL AND/OR QC” (Scenic Immunology B.V., priority 2023, dated 2024)

By UniProt entry, the sequences of proteins in these tests, tags left out. Residues count along the entry.
UniProt Q9NXS2, 53-382 limits assumed: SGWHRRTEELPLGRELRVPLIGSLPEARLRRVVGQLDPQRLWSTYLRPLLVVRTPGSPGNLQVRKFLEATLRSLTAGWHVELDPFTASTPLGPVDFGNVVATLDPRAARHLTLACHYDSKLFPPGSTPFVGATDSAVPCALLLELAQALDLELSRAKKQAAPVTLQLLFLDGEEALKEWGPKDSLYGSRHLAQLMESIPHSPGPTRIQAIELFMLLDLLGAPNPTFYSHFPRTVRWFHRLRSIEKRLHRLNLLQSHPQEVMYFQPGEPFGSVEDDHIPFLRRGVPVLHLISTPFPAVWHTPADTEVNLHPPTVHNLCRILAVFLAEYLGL
UniProt Q16769, 33-361 limits assumed: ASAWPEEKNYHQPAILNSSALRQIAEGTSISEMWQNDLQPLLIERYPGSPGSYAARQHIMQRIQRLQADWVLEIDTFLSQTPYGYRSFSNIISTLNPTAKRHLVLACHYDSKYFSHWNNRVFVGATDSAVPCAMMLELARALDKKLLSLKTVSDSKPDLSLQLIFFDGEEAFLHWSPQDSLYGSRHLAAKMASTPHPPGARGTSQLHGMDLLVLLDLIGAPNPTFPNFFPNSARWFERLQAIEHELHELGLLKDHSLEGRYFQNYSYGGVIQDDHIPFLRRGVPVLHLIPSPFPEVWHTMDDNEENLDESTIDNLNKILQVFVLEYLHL

Experiments:
[1] = target: human isoQC (Homo sapiens, UniProt Q9NXS2); experiment: Assay 1 - isoQC potency, fluorescent enzymatic assay (H-Gln-AMC, coupled pGAPase detection); settings: read-out: isoQC potency (nM) Assay 1, recombinant isoQC, 1 hour at 37°C, tested form: free base
Source text: The Golgi luminal, enzymatically active region of human isoQC (S53-L382; see, e.g., Huang et al., 2011) was obtained by expression in E. coli of an N-terminally GST Enterokinase and C-terminally 6xHis tagged construct in the pET41(+) vector and subsequent purification using Ni-NTA IMAC. Enterokinase digestion ensued, followed by another Ni-NTA IMAC purification, Superdex75 based size exclusion and finally a spin concentration using a 10 kDa molecular weight cutoff. The final protein is formulated in 50 mM Tris-HCl, 150 mM NaCl, 50% Glycerol, pH 7.8.
Pyroglutamylation was measured by conversion of glutamine-4-amino-7-methylcoumarine (H-Gln-AMC, Bachem) to pyroglutamyl-AMC, which is subsequently a specific substrate for pyroglutamylaminopeptidase (pGAPase, Qiagen), releasing free AMC which can be fluorescently detected. […]
To detect the amount of pyroglutamyl-AMC formed, a 0.125 U/mL pGAPase enzyme diluted in 50 mM Tris-HCl pH 8.0 containing 10 mM dithiothreitol (DTT) solution was prepared. […] Plates were then incubated for 25 minutes at room temperature before fluorescence readings were taken on an Envision2 plate reader with excitation set at 380 nm and emission at 450 nm. […]
IC50 values are calculated using non-linear regression analysis with GraphPad Prism software.

[2] = target: recombinant QC enzyme (Homo sapiens, UniProt Q16769); experiment: Assay 2 - QC potency, fluorescent enzymatic assay (H-Gln-AMC, coupled pGAPase detection); settings: read-out: QC potency (nM) Assay 2, 1 hour at 37°C, tested form: free base
[3] = system: pyroglutamylated CD47; experiment: Assay 3 - cell-based potency assay (pyroglutamylation in live cells, total CD47/pE-CD47 dual staining, FACS); settings: read-out: Cell potency (nM) Assay 3; IC50 of CC2C6 signal; KBM7 cells, 72 hours incubation; tested form: free base
Description: Cells were spun for 4 minutes at 1500 rpm and washed once with PBS / 0.5% BSA. Cells were spun down again and the supernatant was removed and incubated in 100 uL antibody staining solution (PBS / 0.5% BSA / 0.1 µg/mL DAPI (4',6-diamidino-2-phenylindole, ThermoFisher Scientific) and a mixture of 1:500 FITC-conjugated anti-human CD47 clone 2D3, which recognizes total CD47 irrespective of its pyroglutamylation state, and 1:500 Alexa647-conjugated anti-human CD47 clone CC2C6, which specifically detects pyroglutamylated CD47) for 2 hours at 4°C. Next, the cells were spun down and washed twice with 2 x 150 µL PBS / 0.5% BSA to remove unbound antibody. […]
In order to test compounds for their effect on pyroglutamylation in live cells, 25000 KBM7 cells per well were seeded in a 96-well U-bottom plate in 150 µl IMDM / 10% FCS / 1% Pen / Strep medium and a 10-point 2-fold dilution range of test compounds. After 72 hours incubation at 37°C, 5% COz, cells were stained for total CD47 and pE-CD47 and analysed on a BD Celesta using FACS Diva software (BD Biosciences). Cells gated for DAPI negativity were recorded and the median fluorescence intensity (MFI) of each sample was transformed to linearly scale between the MFI's of wildtype and CD47 knockout cells (in case of the 2D3 antibody) and the wildtype and QPCTL knockout cells (in case of the CC2C6 antibody). […]

`O=C1OC[C@H](c2ccc(-c3cnc(C(F)(F)F)s3)cc2F)N1c1ccc2[nH]cnc2c1` was tested, and the IC50 [1] was 3.1 nM, the IC50 [2] was 22.5 nM and the IC50 [3] was 159 nM.
